# According to US20240360179A1, “STAPLED PEPTIDES AND METHODS THEREOF” (FOG PHARMACEUTICALS, INC., priority 2021, published 2024):
# By UniProt entry, the sequences of proteins in these tests, tags left out. Residues count along the entry.
# UniProt P35222, whole entry: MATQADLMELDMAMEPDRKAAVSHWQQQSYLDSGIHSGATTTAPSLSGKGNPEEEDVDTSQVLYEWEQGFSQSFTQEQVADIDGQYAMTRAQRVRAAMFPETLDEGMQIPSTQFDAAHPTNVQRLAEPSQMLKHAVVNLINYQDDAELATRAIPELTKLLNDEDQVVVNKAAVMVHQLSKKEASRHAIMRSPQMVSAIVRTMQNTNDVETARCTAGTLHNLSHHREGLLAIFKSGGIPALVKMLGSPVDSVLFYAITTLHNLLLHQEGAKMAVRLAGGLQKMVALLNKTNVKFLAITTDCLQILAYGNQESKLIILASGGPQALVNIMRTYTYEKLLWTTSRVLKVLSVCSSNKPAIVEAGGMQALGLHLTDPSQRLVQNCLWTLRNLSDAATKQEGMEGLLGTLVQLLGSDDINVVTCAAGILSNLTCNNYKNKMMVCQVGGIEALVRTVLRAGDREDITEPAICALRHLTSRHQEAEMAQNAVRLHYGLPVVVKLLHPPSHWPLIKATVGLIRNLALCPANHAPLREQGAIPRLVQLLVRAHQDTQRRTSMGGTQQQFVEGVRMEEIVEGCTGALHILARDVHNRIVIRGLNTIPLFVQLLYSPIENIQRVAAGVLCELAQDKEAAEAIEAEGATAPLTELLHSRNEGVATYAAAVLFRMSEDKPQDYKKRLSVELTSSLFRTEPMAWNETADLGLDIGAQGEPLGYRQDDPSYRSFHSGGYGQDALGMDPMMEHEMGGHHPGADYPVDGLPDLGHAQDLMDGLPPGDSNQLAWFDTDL
# UniProt P35222, 2-781: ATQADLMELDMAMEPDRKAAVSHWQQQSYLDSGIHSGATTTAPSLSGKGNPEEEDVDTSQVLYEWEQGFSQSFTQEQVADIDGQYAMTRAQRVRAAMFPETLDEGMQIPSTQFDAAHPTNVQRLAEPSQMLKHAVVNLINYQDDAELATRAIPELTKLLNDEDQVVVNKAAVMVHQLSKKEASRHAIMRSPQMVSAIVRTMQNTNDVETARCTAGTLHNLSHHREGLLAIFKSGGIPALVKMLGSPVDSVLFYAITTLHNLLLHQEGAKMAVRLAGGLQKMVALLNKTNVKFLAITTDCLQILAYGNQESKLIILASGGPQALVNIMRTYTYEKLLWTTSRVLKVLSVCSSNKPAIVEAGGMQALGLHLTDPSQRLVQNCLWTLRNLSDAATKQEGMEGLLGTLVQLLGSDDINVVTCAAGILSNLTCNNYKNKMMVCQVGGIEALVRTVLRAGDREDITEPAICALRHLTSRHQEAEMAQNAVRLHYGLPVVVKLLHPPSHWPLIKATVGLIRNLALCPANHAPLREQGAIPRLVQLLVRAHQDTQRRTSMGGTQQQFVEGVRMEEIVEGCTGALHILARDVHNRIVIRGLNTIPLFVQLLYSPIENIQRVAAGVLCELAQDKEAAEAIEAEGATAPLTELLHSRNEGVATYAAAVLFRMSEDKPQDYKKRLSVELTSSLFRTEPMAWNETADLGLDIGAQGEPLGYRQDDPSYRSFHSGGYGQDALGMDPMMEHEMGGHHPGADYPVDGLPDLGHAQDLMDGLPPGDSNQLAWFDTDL
# pIC50: −log10 of the molar value. Where two headings read alike, the source gives them in different places.
# What was measured:
# [1] = target: T1, full-length B-Catenin (Uniprot ID P35222) (Homo sapiens, UniProt P35222); format: binding
# T1 construct: 10 nM full-length B-Catenin (Uniprot ID P35222)
# [2] = target: TCF/LEF luciferase reporter in DLD1 cells (Homo sapiens, UniProt P35222); assay: TCF reporter assay in DLD1 cells (4% or 20% FBS); format: cell-based
# [3] = target: beta-catenin/TCF4 interaction (Homo sapiens, UniProt P35222); format: cell-based; design: host or cells: HEK293; details: read-out: NanoBRET Abs IC50
# [4] = competition fluorescence polarization, read-out: beta-Catenin FP IC50
# [5] = read-out: DLD1 4% Abs IC50, DLD1 reporter, 4% FBS
# [6] = read-out: beta-catenin TCF4 competition FP assay IC50
# [7] = read-out: beta-catenin TCF4 DLD1 cell reporter assay IC50
Substance,"pIC50 [1, 4]","pIC50 [2, 5]","pIC50 [1, 6]","pIC50 [2, 7]",pIC50 [3]
Ac-Ala-Ala-S5-Ala-Asp-Npg-B5-Asp-3COOHF-Aib-Ala-Phe-Lys*3-PyrS2-3Thi-BztA-GlnR*3-Ala [I-1284],> 7.30,< 5.30,,,
Ac-PL3-Asp-DipA-B5-Asp-3COOHF-Ala-Ala-Phe-Lys*3-PyrS2-3Thi-34ClF-GlnR*3-Ala-Ala-[Ac-PEG8]-Lys-NH2-NH2 [I-1788],> 7.30,5.30 to 6.00,,,
Ac-PL3-Asp-DipA-B5-Asp-3COOHF-Ala-Ala-Phe-Lys*3-PyrS2-3Thi-34ClF-GlnR*3-Ala-Ala-[Ac-dPEG2]-Lys-NH2-NH2 [I-1787],> 7.30,5.30 to 6.00,,,
Ac-PL3-Asp-DipA-B5-Asp-3COOHF-Ala-Ala-Phe-Lys*3-PyrS2-3Thi-34ClF-GlnR*3-Ala-Ala-[C18-PEG8]-Lys-NH2-NH2 [I-1792],< 6.00,≥ 6.00,,,
Ac-PL3-Asp-DipA-B5-Asp-3COOHF-Ala-Ala-Phe-Lys*3-PyrS2-3Thi-34ClF-GlnR*3-Ala-Ala-[C18-dPEG2]-Lys-NH2-NH2 [I-1791],< 6.00,≥ 6.00,,,
Ac-PL3-Asp-DipA-B5-Asp-3COOHF-Ala-Ala-Phe-Lys*3-PyrS2-3Thi-34ClF-GlnR*3-Ala-Ala-[Oct-PEG8]-Lys-NH2-NH2 [I-1790],> 7.30,5.30 to 6.00,,,
Ac-PL3-Asp-DipA-B5-Asp-3COOHF-Ala-Ala-Phe-Lys*3-PyrS2-3Thi-34ClF-GlnR*3-Ala-Ala-[Oct-dPEG2]-Lys-NH2-NH2 [I-1789],> 7.30,5.30 to 6.00,,,
Ac-PL3-Asp-Npg-B5-Asp-3COOHF-Aib-Ala-Phe-Leu-[4Abu]DapAc7-3thi-BztA-Ala-GlnR-NH2 [I-1363],6.70 to 7.30,< 5.30,,,
Ac-PL3-Asp-Npg-B5-Asp-3COOHF-Aib-Ala-Phe-Leu-[SBut][CH2CH2NH]Dap-3thi-BztA-Ala-GlnR-NH2 [I-1364],6.70 to 7.30,< 5.30,,,
Ac-PL3-Asp-Npg-B5-Asp-3COOHF-Aib-Ala-Phe-Lys*3-PyrS2-3Thi-BztA-GlnR*3-Aib-Ser-[mPEG8]-Lys-NH2 [I-1822],> 7.30,5.30 to 6.00,,,
Ac-PL3-Asp-Npg-B5-Asp-3COOHF-Aib-Ala-Phe-Lys*3-PyrS2-3Thi-BztA-GlnR*3-Aib-Ser-[mPEG8]-Lys-NH2 [I-1823],6.70 to 7.30,5.30 to 6.00,,,
Ac-PL3-Asp-Npg-B5-Asp-3COOHF-Aib-Ala-Phe-Lys*3-PyrS2-3Thi-BztA-GlnR*3-OH [I-1709],> 7.30,5.30 to 6.00,,,
Ac-PL3-Asp-Npg-B5-Asp-3COOHF-Aib-Ala-Phe-Lys*3-PyrS2-3Thi-BztA-GlnR*3-Thr-Ala-[mPEG8]-Lys-NH2 [I-1815],> 7.30,5.30 to 6.00,,,
Ac-PL3-Asp-Npg-B5-Asp-3COOHF-Aib-Ala-Phe-[13Ac]Cys-PyrS2-3Thi-BztA-Cys-Ala-NH2 [I-1282],> 7.30,,7.72,4.96,
Ac-PL3-Asp-Npg-B5-Asp-3COOHF-Aib-Ala-Phe-[33Oxe]Cys-PyrS2-3Thi-BztA-Cys-Ala-NH2 [I-1277],> 7.30,,7.51,4.74,
Ac-PL3-Asp-Npg-B5-Asp-3COOHF-Aib-Ala-Phe-[C3]hCys-PyrS2-3Thi-BztA-Cys-Ala-NH2 [I-1279],> 7.30,< 5.30,,,
Ac-PL3-Asp-Npg-B5-Asp-3COOHF-Aib-Ala-Phe-[IsoE]Cys-PyrS2-3Thi-BztA-Pen-Ala-NH2 [I-1458],> 7.30,5.30 to 6.00,,,
Ac-PL3-Asp-Npg-B5-Asp-3COOHF-Aib-Ala-Phe-[IsoE]hCys-PyrS2-3Thi-BztA-Cys-Ala-NH2 [I-1281],> 7.30,5.30 to 6.00,,,
Ac-PL3-Asp-Npg-B5-Asp-3COOHF-Aib-Ala-Phe-[Red]Cys-PyrS2-3Thi-BztA-Cys-Ala-NH2 [I-1275],> 7.30,,7.66,5.28,
Ac-PL3-Asp-Npg-B5-Asp-TfeGA-Ala-Ala-Phe-Lys*3-PyrS2-Phe-BztA-GlnR*3-Leu-Ser-NH2 [I-898],> 7.30,,,,5.00 to 5.52
Ac-PL3-Asp-Npg-B5-Asp-TfeGA-Ala-Ala-Phe-Lys*3-PyrS2-Phe-BztA-GlnR*3-NH2 [I-894],> 7.30,,,,5.00 to 5.52
Ac-PL3-Asp-Npg-B5-Asp-TfeGA-Phe-Ala-Phe-Lys*3-PyrS2-Phe-BztA-GlnR*3-Ala-NH2 [I-901],> 7.30,,,,< 5.00
Ac-PL3-Asp-Npg-B5-Asp-TfeGA-Phe-Ala-Phe-Lys*3-PyrS2-Phe-BztA-GlnR*3-NH2 [I-900],> 7.30,,,,< 5.00
Ac-PL3-Asp-nLeu-B5-Asp-3COOHF-Aic-Ala-Phe-Lys*3-PyrS2-3Thi-BztA-GlnR*3-Ala-NH2 [I-848],> 7.30,,,,5.00 to 5.52
Ac-PL3-Asp-nLeu-B5-Asp-3COOHF-Cbg-Ala-Phe-Lys*3-PyrS2-3Thi-BztA-GlnR*3-Ala-NH2 [I-861],> 7.30,,,,5.00 to 5.52
Ac-PL3-Asp-nLeu-B5-Asp-3COOHF-Phe-Ala-Phe-Lys*3-PyrS2-3Thi-BztA-GlnR*3-Ala-NH2 [I-842],> 7.30,,,,5.52 to 5.82

Substance,"pIC50 [1, 4]","pIC50 [2, 5]","pIC50 [1, 6]","pIC50 [2, 7]",pIC50 [3]
Ac-PL3-NGlu-Npg-B5-Asp-3COOHF-Aib-Ala-Phe-Lys*3-PyrS2-3Thi-BztA-GlnR*3-Ala-NH2 [I-935],6.70 to 7.30,,,,< 5.00
Ac-PL3-RbGlu-Npg-B5-Asp-3COOHF-Aib-Ala-Phe-Lys*3-PyrS2-3Thi-BztA-GlnR*3-Ala-NH2 [I-961],> 7.30,,,,< 5.00
Ac-PL3-isoDAsp-Npg-B5-Asp-3COOHF-Aib-Ala-Phe-Lys*3-PyrS2-3Thi-BztA-GlnR*3-Ala-NH2 [I-957],> 7.30,,,,5.00 to 5.52
Ac-Pro-S5-Ala-Asp-Npg-B5-Asp-3COOHF-Aib-Ala-Phe-Lys*3-PyrS2-3Thi-BztA-GlnR*3-Ala-NH2 [I-1138],> 7.30,,,,< 5.00
Ac-Pro-S5-Ala-Asp-Npg-B5-Asp-3COOHF-Aib-Ala-Phe-Lys*3-PyrS2-3Thi-BztA-GlnR*3-Ala-NH2 [I-1139],> 7.30,,,,< 5.00
Ac-S5-3COOHF-Asp-DipA-B5-Asp-3COOHF-Aib-Ala-Phe-Lys*3-PyrS1-Phe-34ClF-GlnR*3-NH2 [I-1806],> 7.30,,,,5.00 to 5.52
Ac-S5-AcLys-Asp-DipA-B5-Asp-3COOHF-Aib-Ala-Phe-Lys*3-PyrS1-3Thi-BztA-GlnR*3-NH2 [I-1873],> 7.30,,,,< 5.00
Ac-S5-Glu-Asp-DipA-B5-Asp-3COOHF-Aib-Ala-Phe-Lys*3-PyrS1-Phe-34ClF-GlnR*3-NH2 [I-1784],> 7.30,,,,5.00 to 5.52
Ac-S5-Phe-Asp-DipA-B5-Asp-3COOHF-Aib-Ala-Phe-Lys*3-PyrS1-Phe-34ClF-GlnR*3-NH2 [I-1808],> 7.30,,,,< 5.00
Ac-S5-Phe-Asp-Npg-B5-Asp-3COOHF-Aib-Ala-Phe-Lys*3-PyrS2-3Thi-BztA-GlnR*3-Ala-NH2 [I-1136],> 7.30,,,,< 5.00
Ac-S5-Phe-Asp-Npg-B5-Asp-3COOHF-Aib-Ala-Phe-Lys*3-PyrS2-3Thi-BztA-GlnR*3-Ala-NH2 [I-1137],6.70 to 7.30,,,,< 5.00
Ac-S5-Phe-Asp-Npg-B5-Asp-3COOHF-Aib-Ala-Phe-Lys*3-PyrS2-3Thi-BztA-GlnR*3-Ala-NH2 [I-1148],> 7.30,,,,< 5.00
Ac-S5-TfeGA-Asp-DipA-B5-Asp-3COOHF-Aib-Ala-Phe-Lys*3-PyrS1-Phe-34ClF-GlnR*3-NH2 [I-1805],> 7.30,,,,5.00 to 5.52
Ac-S5-Thr-Asp-DipA-B5-Asp-3COOHF-Aib-Ala-Phe-Lys*3-PyrS1-Phe-34ClF-GlnR*3-NH2 [I-1807],> 7.30,,,,< 5.00
Ac-S5-Val-Asp-Npg-B5-Asp-3COOHF-Aib-Ala-Phe-Lys*3-PyrS2-3Thi-BztA-GlnR*3-Ala-NH2 [I-1130],< 6.00,,,,< 5.00
Ac-S5-Val-Asp-Npg-B5-Asp-3COOHF-Aib-Ala-Phe-Lys*3-PyrS2-3Thi-BztA-GlnR*3-Ala-NH2 [I-1131],< 6.00,,,,< 5.00
EtHNCO-PL3-Asp-Npg-B5-Asp-3COOHF-Aib-Ala-Phe-Lys*3-PyrS2-3Thi-BztA-GlnR*3-Ala-NH2 [I-802],> 7.30,,,,5.00 to 5.52
Hex-PL3-Asp-Npg-B5-Asp-3COOHF-Aib-Ala-Phe-Lys*3-PyrS2-3Thi-BztA-GlnR*3-Ala-NH2 [I-746],> 7.30,,,,5.00 to 5.52
Isobutyryl-PL3-Asp-Npg-B5-Asp-3COOHF-Aib-Ala-Phe-Lys*3-PyrS2-3Thi-BztA-GlnR*3-Ala-NH2 [I-799],> 7.30,,,,5.00 to 5.52
Isovaleryl-PL3-Asp-Npg-B5-Asp-3COOHF-Aib-Ala-Phe-Lys*3-PyrS2-3Thi-BztA-GlnR*3-Ala-NH2 [I-801],> 7.30,,,,< 5.00
MeOPr-PL3-Asp-Npg-B5-Asp-3COOHF-Aib-Ala-Phe-Lys*3-PyrS2-3Thi-BztA-GlnR*3-Ala-NH2 [I-750],> 7.30,,,,5.52 to 5.82
MeSO2-PL3-Asp-Npg-B5-Asp-3COOHF-Aib-Ala-Phe-Lys*3-PyrS2-3Thi-BztA-GlnR*3-Ala-NH2 [I-754],> 7.30,,,,5.00 to 5.52
Ts-PL3-Asp-Npg-B5-Asp-3COOHF-Aib-Ala-Phe-Lys*3-PyrS2-3Thi-BztA-GlnR*3-Ala-NH2 [I-755],> 7.30,,,,5.00 to 5.52
Ts-PL3-Asp-Npg-B5-Asp-3COOHF-Aib-Ala-Phe-Lys*3-PyrS2-3Thi-BztA-GlnR*3-Ala-NH2 [I-756],> 7.30,,,,< 5.00
lithocholate-PL3-Asp-Npg-B5-Asp-3COOHF-Aib-Ala-Phe-Lys*3-PyrS2-3Thi-BztA-GlnR*3-Ala-NH2 [I-751],6.12 to 6.70,,,,< 5.00
